The values that follow come from ChEMBL document CHEMBL4765267, “Targeting different binding sites in the CFTR structures allows to synergistically potentiate channel activity” (Eur J Med Chem, 2020).

Sequences of proteins named here, by UniProt entry; tags and fusion partners are left off. A line that says so, or that is headed by a name, gives the form on record, which may keep a tag or linker.
UniProt P13569, as listed by the source: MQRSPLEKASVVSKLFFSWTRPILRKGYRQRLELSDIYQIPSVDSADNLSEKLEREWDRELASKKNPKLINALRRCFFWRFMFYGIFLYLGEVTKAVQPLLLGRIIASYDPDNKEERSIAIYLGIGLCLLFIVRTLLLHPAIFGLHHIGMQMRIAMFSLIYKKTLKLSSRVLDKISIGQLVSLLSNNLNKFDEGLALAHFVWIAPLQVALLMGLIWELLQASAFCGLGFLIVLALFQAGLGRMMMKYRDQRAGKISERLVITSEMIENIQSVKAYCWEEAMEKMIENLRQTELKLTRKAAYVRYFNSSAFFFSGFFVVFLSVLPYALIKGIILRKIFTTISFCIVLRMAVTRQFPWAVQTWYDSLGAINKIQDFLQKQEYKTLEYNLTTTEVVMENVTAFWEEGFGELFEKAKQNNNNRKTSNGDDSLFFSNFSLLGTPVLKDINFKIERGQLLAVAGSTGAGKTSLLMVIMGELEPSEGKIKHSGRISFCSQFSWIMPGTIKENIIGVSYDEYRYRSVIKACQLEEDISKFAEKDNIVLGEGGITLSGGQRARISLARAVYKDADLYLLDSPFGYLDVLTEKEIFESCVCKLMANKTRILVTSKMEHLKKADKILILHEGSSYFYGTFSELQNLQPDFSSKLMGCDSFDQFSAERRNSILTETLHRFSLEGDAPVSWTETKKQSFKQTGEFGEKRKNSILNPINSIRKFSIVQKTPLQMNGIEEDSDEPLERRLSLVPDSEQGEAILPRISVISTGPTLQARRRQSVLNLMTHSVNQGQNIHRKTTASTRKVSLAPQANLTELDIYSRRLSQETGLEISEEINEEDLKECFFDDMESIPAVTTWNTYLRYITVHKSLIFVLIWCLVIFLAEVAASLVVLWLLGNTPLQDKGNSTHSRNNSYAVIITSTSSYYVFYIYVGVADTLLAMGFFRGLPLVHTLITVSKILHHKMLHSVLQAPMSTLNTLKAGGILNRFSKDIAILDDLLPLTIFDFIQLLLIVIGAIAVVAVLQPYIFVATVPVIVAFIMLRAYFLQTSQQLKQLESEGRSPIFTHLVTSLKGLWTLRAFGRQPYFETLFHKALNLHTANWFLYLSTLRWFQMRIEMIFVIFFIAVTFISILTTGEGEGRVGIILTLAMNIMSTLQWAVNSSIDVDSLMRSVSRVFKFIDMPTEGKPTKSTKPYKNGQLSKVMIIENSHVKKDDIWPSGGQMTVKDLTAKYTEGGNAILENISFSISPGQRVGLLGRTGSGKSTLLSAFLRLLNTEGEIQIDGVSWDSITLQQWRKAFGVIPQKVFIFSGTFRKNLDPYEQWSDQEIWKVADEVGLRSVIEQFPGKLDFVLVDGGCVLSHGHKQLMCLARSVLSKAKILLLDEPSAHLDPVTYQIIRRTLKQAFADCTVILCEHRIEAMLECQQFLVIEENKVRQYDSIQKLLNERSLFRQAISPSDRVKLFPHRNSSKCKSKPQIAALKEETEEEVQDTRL
UniProt P13569, whole entry G970R: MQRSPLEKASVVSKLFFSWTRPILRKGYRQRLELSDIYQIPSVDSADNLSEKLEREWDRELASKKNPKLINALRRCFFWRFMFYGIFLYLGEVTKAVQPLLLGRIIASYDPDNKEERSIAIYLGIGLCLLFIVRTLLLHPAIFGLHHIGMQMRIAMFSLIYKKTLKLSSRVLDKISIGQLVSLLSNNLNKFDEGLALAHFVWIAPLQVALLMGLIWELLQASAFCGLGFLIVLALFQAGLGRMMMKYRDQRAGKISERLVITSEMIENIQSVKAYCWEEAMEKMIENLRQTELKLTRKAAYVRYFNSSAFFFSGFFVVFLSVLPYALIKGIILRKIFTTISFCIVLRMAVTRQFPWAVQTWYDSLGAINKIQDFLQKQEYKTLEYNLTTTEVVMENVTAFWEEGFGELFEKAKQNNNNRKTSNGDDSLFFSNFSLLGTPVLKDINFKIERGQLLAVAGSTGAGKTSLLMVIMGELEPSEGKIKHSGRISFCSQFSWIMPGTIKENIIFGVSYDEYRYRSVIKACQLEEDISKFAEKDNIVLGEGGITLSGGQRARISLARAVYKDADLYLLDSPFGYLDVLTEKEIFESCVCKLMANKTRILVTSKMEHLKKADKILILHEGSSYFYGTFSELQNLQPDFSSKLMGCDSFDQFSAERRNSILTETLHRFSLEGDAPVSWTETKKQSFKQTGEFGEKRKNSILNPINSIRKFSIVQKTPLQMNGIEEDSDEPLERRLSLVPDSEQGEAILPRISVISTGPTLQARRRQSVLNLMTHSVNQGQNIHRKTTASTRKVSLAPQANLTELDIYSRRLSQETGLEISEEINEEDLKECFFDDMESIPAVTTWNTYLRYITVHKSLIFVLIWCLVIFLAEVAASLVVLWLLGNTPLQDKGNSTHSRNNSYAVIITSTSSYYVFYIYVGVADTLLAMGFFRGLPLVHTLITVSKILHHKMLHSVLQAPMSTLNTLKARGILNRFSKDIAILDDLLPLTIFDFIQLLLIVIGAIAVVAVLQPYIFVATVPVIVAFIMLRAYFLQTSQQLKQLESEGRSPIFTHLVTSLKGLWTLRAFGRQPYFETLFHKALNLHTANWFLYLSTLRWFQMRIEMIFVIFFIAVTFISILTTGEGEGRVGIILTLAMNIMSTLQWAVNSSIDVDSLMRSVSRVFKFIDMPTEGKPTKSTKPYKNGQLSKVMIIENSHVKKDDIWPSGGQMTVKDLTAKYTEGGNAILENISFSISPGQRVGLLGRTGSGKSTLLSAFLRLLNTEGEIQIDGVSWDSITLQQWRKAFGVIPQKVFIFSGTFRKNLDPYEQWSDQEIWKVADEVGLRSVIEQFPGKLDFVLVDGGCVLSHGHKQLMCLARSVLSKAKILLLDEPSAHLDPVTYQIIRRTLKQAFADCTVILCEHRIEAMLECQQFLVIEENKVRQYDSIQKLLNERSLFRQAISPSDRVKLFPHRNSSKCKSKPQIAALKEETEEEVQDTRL
UniProt P13569, whole entry, looked up: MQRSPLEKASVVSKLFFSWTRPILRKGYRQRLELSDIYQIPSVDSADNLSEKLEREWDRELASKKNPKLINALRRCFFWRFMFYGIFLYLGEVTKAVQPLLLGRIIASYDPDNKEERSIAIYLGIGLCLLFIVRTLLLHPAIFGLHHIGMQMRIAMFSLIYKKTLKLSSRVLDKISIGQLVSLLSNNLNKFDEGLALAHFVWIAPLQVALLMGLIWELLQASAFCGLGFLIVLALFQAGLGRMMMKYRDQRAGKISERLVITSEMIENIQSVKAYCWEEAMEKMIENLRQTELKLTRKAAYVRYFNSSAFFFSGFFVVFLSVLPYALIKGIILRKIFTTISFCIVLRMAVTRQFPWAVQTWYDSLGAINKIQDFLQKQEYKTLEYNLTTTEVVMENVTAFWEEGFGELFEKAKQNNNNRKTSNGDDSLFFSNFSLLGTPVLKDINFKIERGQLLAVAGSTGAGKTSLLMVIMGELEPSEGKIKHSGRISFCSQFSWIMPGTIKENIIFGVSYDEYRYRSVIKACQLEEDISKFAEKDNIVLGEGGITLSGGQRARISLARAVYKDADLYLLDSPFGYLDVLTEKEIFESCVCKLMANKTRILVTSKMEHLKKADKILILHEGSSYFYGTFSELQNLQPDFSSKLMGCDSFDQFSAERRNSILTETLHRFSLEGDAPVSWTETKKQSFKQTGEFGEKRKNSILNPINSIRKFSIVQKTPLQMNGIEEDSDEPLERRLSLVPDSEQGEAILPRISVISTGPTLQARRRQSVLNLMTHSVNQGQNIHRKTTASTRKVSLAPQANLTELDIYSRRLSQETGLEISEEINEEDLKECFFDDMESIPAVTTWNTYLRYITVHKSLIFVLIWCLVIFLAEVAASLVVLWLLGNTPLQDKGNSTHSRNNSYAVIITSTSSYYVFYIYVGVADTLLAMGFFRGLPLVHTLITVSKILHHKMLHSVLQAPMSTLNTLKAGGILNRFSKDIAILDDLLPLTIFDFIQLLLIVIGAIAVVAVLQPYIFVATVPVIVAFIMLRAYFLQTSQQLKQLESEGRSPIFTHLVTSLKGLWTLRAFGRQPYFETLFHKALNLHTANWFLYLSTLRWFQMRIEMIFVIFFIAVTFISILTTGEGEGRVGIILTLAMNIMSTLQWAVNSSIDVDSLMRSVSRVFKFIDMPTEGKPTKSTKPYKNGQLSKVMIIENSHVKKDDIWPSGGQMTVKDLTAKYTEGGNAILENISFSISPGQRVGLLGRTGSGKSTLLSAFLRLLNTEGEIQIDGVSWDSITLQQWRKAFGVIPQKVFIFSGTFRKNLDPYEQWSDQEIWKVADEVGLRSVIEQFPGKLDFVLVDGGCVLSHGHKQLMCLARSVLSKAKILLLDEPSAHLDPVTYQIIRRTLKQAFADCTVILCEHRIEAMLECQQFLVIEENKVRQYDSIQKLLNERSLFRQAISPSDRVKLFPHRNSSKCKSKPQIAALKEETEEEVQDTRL
UniProt P13569, whole entry G551D: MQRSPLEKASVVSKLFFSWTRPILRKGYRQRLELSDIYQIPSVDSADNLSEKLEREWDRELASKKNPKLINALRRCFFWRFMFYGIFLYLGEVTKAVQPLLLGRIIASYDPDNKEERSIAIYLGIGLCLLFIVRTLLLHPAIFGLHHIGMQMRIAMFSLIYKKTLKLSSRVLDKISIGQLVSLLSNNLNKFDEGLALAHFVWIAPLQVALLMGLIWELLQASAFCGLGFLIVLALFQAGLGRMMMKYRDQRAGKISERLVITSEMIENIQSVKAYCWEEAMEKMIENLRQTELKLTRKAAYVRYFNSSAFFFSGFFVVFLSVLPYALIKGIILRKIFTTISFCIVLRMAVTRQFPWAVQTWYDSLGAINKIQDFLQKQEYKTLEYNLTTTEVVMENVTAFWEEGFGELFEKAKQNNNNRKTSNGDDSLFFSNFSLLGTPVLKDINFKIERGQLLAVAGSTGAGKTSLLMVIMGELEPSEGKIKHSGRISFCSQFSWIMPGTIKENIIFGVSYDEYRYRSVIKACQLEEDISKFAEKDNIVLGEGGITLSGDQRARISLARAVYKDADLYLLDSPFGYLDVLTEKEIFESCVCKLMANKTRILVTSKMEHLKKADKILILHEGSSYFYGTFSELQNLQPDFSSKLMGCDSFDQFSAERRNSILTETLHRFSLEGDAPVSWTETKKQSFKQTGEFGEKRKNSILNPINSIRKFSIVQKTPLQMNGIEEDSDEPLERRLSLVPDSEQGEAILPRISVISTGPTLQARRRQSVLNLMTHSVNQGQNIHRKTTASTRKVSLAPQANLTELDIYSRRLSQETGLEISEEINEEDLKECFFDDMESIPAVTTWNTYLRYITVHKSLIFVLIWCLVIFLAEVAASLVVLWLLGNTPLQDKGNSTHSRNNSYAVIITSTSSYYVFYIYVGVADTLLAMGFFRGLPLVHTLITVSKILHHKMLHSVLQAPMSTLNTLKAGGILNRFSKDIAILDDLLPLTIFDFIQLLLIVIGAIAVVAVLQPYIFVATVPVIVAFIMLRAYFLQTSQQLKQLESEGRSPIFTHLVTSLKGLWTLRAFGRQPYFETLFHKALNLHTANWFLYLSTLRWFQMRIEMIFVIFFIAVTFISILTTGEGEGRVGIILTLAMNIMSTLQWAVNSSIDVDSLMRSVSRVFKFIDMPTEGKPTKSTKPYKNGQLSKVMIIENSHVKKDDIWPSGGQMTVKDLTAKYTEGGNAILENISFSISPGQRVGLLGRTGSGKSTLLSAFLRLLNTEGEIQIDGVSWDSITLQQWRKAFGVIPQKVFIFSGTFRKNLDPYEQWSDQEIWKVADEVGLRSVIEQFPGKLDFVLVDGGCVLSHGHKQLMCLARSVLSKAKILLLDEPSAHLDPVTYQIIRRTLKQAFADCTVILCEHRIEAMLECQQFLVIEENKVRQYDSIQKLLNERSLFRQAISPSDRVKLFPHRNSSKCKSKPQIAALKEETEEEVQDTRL

Holding throughout (type): cell-based
Common to all, as to settings: filed as activator

Assay [1] deals with Cystic fibrosis transmembrane conductance regulator (Homo sapiens), P13569 [F508del]. Nature of the assay: Potentiator activity at CFTR F508del mutant (unknown origin) expressed in CFBE41o cells assessed as increase in short-circuit current at 1 uM incubated for 24 hrs in presence of 10 uM VX-809 by Ussing chamber assay. In outline: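 CFBE41o- cells stably overexpressing F508del-CFTR, grown on fibronectin-coated inserts at air/liquid interface until resistance ≥300 Ω·cm-2. Corrected 24 h with 10 µM VX-809, with VX-809 (10 µM) and amiloride (100 µM) added apically at the start. CFTR pre-activated with 0.1 µM forskolin, then compounds added apically in sequence. ΔIsc recorded at 35-38 °C, gassed 95% O2/5% CO2.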

Assay [2] shares this test system. Nature of the assay: Potentiation of CFTR F508 deletion mutant (unknown origin) expressed in HeLa cells assessed as current density at 0.1 uM after 24 hrs in presence of forskolin and CFTR inhibitor-172 by automated whole cell patch-clamp assay. In general terms: In patch-clamp work, channel activity is measured electrically.
Assay [3] deals with Cystic fibrosis transmembrane conductance regulator (Homo sapiens), P13569 [G970R]. Nature of the assay: Potentiation of CFTR G970R mutant (unknown origin) expressed in HEK293 cells at 10 uM by YFP fluorescence assay.
In assay [4] the target is Cystic fibrosis transmembrane conductance regulator (Homo sapiens) (UniProt P13569). Briefly: Potentiation of wild type CFTR (unknown origin) expressed in HEK293 cells at 10 uM by YFP fluorescence assay. In outline: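 HEK293 cells co-transfected with YFP-H148Q/I152L and WT or mutant CFTR (Turbofect), plated in 96-well plates after 24 h. Cells incubated 30 min in PBS with cpt-cAMP 100 µM and IBMX 100 µM, with or without compounds (10 or 50 μM; VX-770 10 μM, alone or combined). NaI-PBS injected; exponential fit of fluorescence decay gives I⁻ influx rate (mM/s). One-way ANOVA with Fisher test.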

Assay [5] concerns Cystic fibrosis transmembrane conductance regulator (Homo sapiens), P13569 [G551D]. Nature of the assay: Potentiation of CFTR G551D mutant (unknown origin) expressed in HEK293 cells at 10 uM by YFP fluorescence assay.
In assay [6] the test system is Cystic fibrosis transmembrane conductance regulator (Homo sapiens), P13569 [G1349D]. Briefly: Potentiation of CFTR G1349D mutant (unknown origin) expressed in HEK293 cells at 10 uM by YFP fluorescence assay.

The source made the active and inactive calls. No cut-off for these calls is given here.

For the molecule `CC(C)(C)c1cc(C(C)(C)C)c(NC(=O)c2c[nH]c3ccccc3c2=O)cc1O` [IVACAFTOR], the Activity in assay [1] was 3 uA.cm^-2; in assay [2], 37.5 pA/pF. The outcome in assay [3], in assay [4], in assay [5] and in assay [6] was Active.
